This passage reports Ki results from patent US8959984B2, “Proteome-wide quantification of small molecule binding to cellular target proteins” (priority 2007, dated 2015).

Sequences of proteins named here, by UniProt entry; tags and fusion partners are left off. A change or cut given only in a name is not applied to a line headed by its entry.
UniProt O94921: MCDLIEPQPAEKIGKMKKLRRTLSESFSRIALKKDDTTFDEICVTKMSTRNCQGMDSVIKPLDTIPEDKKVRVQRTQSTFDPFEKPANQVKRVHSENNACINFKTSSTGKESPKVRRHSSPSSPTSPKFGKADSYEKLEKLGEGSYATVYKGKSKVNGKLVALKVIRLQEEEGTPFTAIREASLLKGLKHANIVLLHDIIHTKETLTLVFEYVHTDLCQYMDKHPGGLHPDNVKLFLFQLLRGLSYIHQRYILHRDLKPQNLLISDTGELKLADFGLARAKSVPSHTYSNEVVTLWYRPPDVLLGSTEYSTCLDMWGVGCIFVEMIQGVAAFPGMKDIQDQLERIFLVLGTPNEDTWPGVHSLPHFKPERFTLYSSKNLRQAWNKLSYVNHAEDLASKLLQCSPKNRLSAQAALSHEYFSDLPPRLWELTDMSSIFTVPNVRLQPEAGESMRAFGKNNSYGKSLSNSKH
UniProt P49674: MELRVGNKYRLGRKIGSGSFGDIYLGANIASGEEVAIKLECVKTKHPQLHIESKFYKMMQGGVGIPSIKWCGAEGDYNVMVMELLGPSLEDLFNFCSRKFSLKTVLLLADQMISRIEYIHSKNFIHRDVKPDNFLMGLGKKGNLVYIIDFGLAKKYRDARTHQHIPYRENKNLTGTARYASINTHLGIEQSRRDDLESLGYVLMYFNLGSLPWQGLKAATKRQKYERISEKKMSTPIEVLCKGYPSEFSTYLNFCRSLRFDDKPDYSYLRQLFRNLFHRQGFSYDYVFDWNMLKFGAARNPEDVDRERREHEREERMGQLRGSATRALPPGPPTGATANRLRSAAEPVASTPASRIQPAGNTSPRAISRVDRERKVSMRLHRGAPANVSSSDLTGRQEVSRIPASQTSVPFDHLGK
UniProt P54646: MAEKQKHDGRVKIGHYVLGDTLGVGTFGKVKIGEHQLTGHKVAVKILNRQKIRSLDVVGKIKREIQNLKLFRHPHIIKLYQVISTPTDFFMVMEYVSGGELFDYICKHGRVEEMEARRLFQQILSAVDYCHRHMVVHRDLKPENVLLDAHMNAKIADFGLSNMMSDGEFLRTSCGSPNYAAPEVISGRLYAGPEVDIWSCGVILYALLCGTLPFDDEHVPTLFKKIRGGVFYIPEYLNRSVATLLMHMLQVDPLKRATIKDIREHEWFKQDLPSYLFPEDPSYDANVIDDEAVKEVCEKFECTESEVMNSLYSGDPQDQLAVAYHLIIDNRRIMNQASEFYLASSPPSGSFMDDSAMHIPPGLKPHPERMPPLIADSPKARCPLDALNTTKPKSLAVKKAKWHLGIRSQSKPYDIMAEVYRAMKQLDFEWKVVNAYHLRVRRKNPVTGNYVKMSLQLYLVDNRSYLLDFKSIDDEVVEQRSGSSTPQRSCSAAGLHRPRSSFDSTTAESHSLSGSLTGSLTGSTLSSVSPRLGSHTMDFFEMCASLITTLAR
UniProt Q86UE8, whole entry: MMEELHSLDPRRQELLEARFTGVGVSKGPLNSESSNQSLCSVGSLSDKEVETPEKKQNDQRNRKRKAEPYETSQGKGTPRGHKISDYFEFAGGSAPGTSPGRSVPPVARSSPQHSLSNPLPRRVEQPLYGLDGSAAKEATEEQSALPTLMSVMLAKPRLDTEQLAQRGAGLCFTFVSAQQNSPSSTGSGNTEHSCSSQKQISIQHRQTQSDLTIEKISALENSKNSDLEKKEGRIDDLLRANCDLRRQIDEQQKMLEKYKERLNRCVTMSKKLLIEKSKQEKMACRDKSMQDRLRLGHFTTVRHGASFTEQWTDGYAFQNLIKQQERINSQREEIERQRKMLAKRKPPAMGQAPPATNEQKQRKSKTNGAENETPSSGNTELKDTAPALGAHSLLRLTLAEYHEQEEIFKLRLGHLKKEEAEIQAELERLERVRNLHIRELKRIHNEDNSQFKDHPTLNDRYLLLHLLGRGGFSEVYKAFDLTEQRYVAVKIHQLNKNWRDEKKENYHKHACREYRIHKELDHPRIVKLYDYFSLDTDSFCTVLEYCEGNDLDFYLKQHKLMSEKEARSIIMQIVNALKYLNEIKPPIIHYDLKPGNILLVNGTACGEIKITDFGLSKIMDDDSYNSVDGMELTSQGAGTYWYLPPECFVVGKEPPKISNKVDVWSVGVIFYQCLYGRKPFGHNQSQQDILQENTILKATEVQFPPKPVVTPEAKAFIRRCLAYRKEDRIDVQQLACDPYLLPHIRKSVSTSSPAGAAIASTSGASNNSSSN

Assay in all cases: Ki determination for immobilized VI16742: two consecutive incubations, control beads, ligand concentration and incubation time controls (Tables 7, 8)
Format in all cases: binding

The target of assay [1] is T1, cellular target proteins in HeLa cell lysate (Homo sapiens, UniProt O14965).
T1 sequence (O14965 1-403): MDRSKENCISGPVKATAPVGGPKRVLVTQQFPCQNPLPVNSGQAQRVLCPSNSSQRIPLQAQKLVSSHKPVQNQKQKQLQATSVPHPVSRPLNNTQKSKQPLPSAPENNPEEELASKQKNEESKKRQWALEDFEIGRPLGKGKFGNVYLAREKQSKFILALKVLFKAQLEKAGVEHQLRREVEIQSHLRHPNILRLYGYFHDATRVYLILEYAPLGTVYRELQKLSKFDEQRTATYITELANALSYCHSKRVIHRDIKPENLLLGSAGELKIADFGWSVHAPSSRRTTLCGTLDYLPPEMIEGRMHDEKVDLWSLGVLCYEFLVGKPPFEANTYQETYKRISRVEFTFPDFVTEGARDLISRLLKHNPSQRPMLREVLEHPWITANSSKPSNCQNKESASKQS
Particulars: Ki (VI16742), AurA (AURKA) IPI00298940.

Assay [2] has as its target cellular target proteins in HeLa cell lysate (Homo sapiens, UniProt O94921).
For assay [3], the target named is cellular target proteins in HeLa cell lysate (Homo sapiens, UniProt P49674). The conditions noted are these: Ki (VI16742), CK1e (CSNK1E) IPI00027729.
The target in assay [4] is T2, cellular target proteins in HeLa cell lysate (Homo sapiens, UniProt P51956).
T2 sequence (P51956 1-506): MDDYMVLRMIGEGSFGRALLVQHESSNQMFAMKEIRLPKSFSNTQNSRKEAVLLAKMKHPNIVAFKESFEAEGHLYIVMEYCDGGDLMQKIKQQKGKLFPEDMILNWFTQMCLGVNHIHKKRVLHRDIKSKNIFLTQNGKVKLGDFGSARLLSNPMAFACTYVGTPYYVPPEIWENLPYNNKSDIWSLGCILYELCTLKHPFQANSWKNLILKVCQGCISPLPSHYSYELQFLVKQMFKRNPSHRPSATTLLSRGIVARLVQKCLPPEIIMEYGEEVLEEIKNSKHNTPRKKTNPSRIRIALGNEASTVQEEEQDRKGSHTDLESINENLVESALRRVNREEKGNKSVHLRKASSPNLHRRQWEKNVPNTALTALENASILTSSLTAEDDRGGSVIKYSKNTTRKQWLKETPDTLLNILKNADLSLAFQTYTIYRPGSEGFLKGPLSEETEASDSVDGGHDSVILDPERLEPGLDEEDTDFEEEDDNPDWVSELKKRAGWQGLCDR
Particulars: Ki (VI16742), NEK3 IPI00465101.

The target of assay [5] is cellular target proteins in HeLa cell lysate (Homo sapiens, UniProt P54646). The conditions noted are these: Ki (VI16742), AMPKa2 (PRKAA2) IPI00307755.
For assay [6], the target named is cellular target proteins in HeLa cell lysate (Homo sapiens, UniProt Q86UE8). Particulars: Ki (VI16742), TLK2 IPI00337659.
The target of assay [7] is T3, cellular target proteins in HeLa cell lysate (Homo sapiens, UniProt Q9UEE5).
T3 sequence (Q9UEE5 1-414): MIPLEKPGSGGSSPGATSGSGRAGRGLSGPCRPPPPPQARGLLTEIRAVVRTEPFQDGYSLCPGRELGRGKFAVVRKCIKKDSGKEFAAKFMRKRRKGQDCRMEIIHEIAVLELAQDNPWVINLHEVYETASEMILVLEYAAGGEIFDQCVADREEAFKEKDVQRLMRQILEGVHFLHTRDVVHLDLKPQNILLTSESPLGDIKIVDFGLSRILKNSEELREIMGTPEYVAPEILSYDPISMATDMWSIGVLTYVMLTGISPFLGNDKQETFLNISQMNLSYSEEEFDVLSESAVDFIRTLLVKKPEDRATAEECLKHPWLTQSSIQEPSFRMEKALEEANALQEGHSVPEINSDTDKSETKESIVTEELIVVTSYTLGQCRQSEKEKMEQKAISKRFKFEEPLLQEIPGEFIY

As usually defined, the Ki is a dissociation constant, usually derived from enzyme kinetics or from competition with a known ligand. Turning to `CC(C)n1c(=O)ccc2cnc(Nc3ccc(OCCN)cc3)nc21` [V16742], the Ki in assay [1] turned out to be 3.23 µM; in assay [2], 6.52 µM; in assay [3] it was 14.2 µM; in assay [4], 14.3 µM; in assay [5] it was 17.8 µM; in assay [6] it was 38.9 µM. This compound also yielded a Ki in assay [7] of 11.8 µM.
